Source: patent publication US20120076781A1, “METHODS OF TREATING CANCERS WITH HER3 ANTISENSE OLIGONUCLEOTIDES” (ENZON PHARMACEUTICALS, INC., priority 2009, published 2012)

Test system: HER3 and P-HER3
Test: Feedback upregulation of HER3 and P-HER3 by lapatinib in BT474, SKBR3 and MDA453 cells
Type: cell-based, human
Settings: lapatinib 1 μM, trastuzumab 10 μg/ml, SEQ ID NO: 180 5 μM, 0-48 hours
Experimental: The expression level of HER3, P-HER3 (Y1197) and P-HER3 (Y1289) is shown at 0, 1, 4, 24 and 48 hours as indicated for lapitinib-only treated cells (1), lapatinib plus trastuzumab-treated cells (2), lapitinib plus SEQ ID NO: 180-treated cells (3) and SEQ ID NO: 180-only treated cells (4). Lapatinib was used at a concentration of 1 μM, trastuzumab at a concentration of 10 μg/ml, and SEQ ID NO: 180 at a concentration of 5 μM.

Substance: trastuzumab [reference compound]
- prevention of feedback upregulation of HER3 and P-HER3 expression by lapatinib: not
